Data reported in patent US6515112B2, “Cores for technetium radiopharmaceuticals” (Amersham PLC, priority 1989, dated 2003).

Experiment: Animal biodistribution studies of 99mTc complexes in rats
Type: in vivo, Male Sprague Dawley rats
Conditions: i.v. tail vein, Time P. I. 2
Procedure: Complex Preparation: 20-25 μl of hydrazine was added to 2 cm^3 of absolute ethanol, then ^99mTcO4^−(0.2-3.0 GBq) and 10 mg of ligand were added to the solution. This mixture was heated to 120° C. for 30-60 minutes, cooled to room temperature and analyzed. For biodistribution studies the total volume of he preparation was made up to 5 cm^3 by the addition of sterile saline solution.
Animal Biodistribution Studies: Six Male Sprague Dawley rats were infected while under light ether anaesthesia with 0.1 cm^3 of preparation (i.v., tail vein) and half were sacrificed by cervical dislocation while under ether anaesthesia at the appropriate time interval post-infection and dissected. Organs were weighed and their activities measured in an ionisation chamber. For the purposes of calculations blood was assumed to constitute 5.8% of the total body weight, muscle was assumed to be 43% and the lungs were assumed to weigh 1 g.

CP(C)COCP(C)C (99mTc complex, metal not drawn) [PL28]
S. I.: 13.2
